Assay results published in patent US11773129B2, “Methods of preventing or treating atherosclerosis with inhibitors of specific isoenzymes of human neuraminidase” (THE GOVERNORS OF THE UNIVERSITY OF ALBERTA, priority 2017, dated 2023).

The molecules below were run on NEU1, NEU2, NEU3, NEU4 (assay: Isoenzyme specificity/selectivity from 4MU-NANA IC50 across the four human neuraminidases). Conditions: isoenzyme(s) the compound is specific for; dual (bispecific) when ratio of IC50 is about 3 or less.
Type: biochemical
For `[N-]=[N+]=NCC(=O)N[C@@H]1C(O)C=C(C(=O)O)OC1C(O)C(O)CO` (stereo partly drawn) [compound 40, 5-(N-2-azidoacetyl)-2,3,5-trideoxy-D-glycero-D-galacto-2-nonulopyranosonic acid], the Target was “NEU3/ NEU4”. In the case of `CCCC(=O)NCC(O)C(O)C1OC(C(=O)O)=CC(O)[C@H]1NC(C)=O` (stereo partly drawn) [compound 49, 5-Acetamido-9-butyramido-2,6-anhydro-3,5-dideoxy-D-glycero-D-galacto-non-2-enonic acid], the Target is reported as “NEU1”. For `CCCCC(=O)NCC(O)C(O)C1OC(C(=O)O)=CC(O)[C@H]1NC(C)=O` (stereo partly shown) [compound 50, C9-BA-DANA], the Target was “NEU1”. For `CC(=O)N[C@@H]1C(O)C=C(C(=O)O)OC1C(O)C(O)CNC(=O)CC(C)C` (stereo partly drawn) [compound 54, 5-Acetamido-9-(3-methylbutanamido)-2,6-anhydro-3,5-dideoxy-D-glycero-D-galacto-non-2-enonic acid], the Target was “NEU1”.
